Reference: ChEMBL document CHEMBL1140610, “Matrix metalloproteinases (MMPs): chemical-biological functions and (Q)SARs” (Bioorg Med Chem, 2007)

Amino acid sequences for entries named in this document (tags omitted). A change or cut given only in a name is not applied to a line headed by its entry.
UniProt P14780: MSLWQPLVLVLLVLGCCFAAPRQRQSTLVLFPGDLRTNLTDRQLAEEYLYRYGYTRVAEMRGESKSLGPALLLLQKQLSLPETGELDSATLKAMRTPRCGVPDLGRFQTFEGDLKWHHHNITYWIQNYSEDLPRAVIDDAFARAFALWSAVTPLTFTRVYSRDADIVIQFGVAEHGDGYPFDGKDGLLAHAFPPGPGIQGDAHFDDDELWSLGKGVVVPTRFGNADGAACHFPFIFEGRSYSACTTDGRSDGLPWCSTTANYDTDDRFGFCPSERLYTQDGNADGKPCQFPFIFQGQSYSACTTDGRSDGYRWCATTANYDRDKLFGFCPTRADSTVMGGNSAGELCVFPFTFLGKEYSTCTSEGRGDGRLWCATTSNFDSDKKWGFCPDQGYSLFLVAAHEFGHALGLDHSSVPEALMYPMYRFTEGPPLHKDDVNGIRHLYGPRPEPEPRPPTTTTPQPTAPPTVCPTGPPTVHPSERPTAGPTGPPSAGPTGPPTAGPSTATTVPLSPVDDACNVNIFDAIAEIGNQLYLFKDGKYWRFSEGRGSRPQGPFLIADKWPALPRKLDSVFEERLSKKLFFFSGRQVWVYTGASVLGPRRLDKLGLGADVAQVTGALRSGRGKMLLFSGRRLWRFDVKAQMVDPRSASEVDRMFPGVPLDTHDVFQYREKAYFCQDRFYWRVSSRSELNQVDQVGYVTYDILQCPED

Tests used:
[1] = molecular target: T1, Interstitial collagenase (Homo sapiens, UniProt P03956); details: read-out: log(1/IC50) (converted)
T1 sequence (P03956 whole entry): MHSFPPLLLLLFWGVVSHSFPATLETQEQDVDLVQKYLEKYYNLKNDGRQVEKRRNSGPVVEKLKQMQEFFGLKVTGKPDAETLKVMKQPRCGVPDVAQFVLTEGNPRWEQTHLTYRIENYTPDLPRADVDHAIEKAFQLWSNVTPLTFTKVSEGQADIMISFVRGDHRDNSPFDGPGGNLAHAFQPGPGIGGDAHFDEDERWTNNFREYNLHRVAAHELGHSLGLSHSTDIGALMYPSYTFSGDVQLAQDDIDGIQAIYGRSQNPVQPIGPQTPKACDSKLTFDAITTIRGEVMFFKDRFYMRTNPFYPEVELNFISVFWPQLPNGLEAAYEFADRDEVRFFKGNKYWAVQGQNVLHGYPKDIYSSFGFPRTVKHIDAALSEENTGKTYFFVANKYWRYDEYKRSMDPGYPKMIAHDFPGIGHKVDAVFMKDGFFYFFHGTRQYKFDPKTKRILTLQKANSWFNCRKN

[2] = molecular target: Matrix metalloproteinase-9 (Homo sapiens, UniProt P14780)
[3] = molecular target: Collagenase 3 (Homo sapiens, UniProt P45452)

## C[C@@]1(O)CCCN(S(=O)(=O)c2ccc(OCc3ccccc3Cl)cc2)C1C(=O)NO (some centres not stated)
[1]
  IC50: 269 nM

## Cc1cc(F)ccc1COc1ccc(S(=O)(=O)N2CCC[C@@](C)(O)C2C(=O)NO)cc1 (some centres not stated)
[1]
  IC50: 219 nM

## COc1ccc(S(=O)(=O)N(Cc2ccccc2)c2c(C(=O)NO)cccc2C(F)(F)F)cc1
[2]
  log(1/IC50): 7.57

## COc1ccc(S(=O)(=O)N(Cc2ccccc2)c2ccccc2C(=O)NO)cc1
[3]
  log(1/IC50): 6.26

## COc1ccc(S(=O)(=O)N(Cc2ccccc2)c2c(OC)cccc2C(=O)NO)cc1
[3]
  log(1/IC50): 6.86

## Cc1ccc(F)cc1COc1ccc(S(=O)(=O)N2CCC[C@@](C)(O)C2C(=O)NO)cc1 (some centres not stated)
[1]
  IC50: 603 nM

## COc1ccc(S(=O)(=O)N(Cc2ccccc2)c2c(C)cccc2C(=O)NO)cc1
[2]
  log(1/IC50): 7.64
